The text below walks through data of patent US6818646B2 (priority 2000, dated 2004).

Structures are written as SMILES.

The IC50 is the concentration that inhibits the measured activity by half. What is called Ki is the dissociation constant of the complex between target and ligand, obtained from inhibition or displacement. Read a low Ki as higher affinity.

The target in the first experiment is T1, PDEV (Homo sapiens, UniProt O76074). The experiment is described as follows: PDE assay: inhibition of PDEV isolated from human tissue. The experiment is classed as biochemical. The following applies: PDEV inhibitory activity.
For the compound `COC(=O)c1ccc(COC(=O)N2Cc3c([nH]c4ccccc4c3=O)C2c2ccc3c(c2)CCO3)cc1` (stereo not shown), the IC50 is 2.88 nM.
For `O=C(OCc1ccncc1)N1Cc2c([nH]c3ccccc3c2=O)[C@@H]1c1ccc2c(c1)OCO2`, the IC50 amounted to 2.71 nM. The IC50 values of the last two compounds are within 1.5-fold of each other.
On the same count and under the same terms, next, `O=C(Cc1cccnc1)N1Cc2c([nH]c3ccccc3c2=O)C1c1ccc2c(c1)OCO2` (stereo not shown): 95.1 nM; `O=C(c1ccc(-c2ccc(CO)cc2)o1)N1Cc2c([nH]c3ccccc3c2=O)C1c1ccc2c(c1)OCO2` (stereo not shown): 1.22 nM; `O=C(O)c1ccc(COC(=O)N2Cc3c([nH]c4ccccc4c3=O)C2c2ccc3c(c2)CCO3)cc1` (stereo not shown): 3.31 nM.
On the same count and under the same terms, next, `COC(=O)c1ccc(CCC(=O)N2Cc3c([nH]c4ccccc4c3=O)C2c2ccc3c(c2)OCO3)cc1` (stereo not shown): 11.2 nM; `O=c1c2c([nH]c3ccccc13)C(c1ccc3c(c1)CCC3)N(c1ncc(-c3ccc4c(c3)OCO4)cn1)C2` (stereo not shown): 1.14 nM; `O=C(c1cc2ccccc2o1)N1Cc2c([nH]c3ccccc3c2=O)C1c1ccc2c(c1)CCO2` (stereo not shown): 1.02 nM.
In turn, `COc1ccc(-c2cnc(N3Cc4c([nH]c5ccccc5c4=O)C3c3ccc4c(c3)OCCO4)nc2)cc1` (stereo not shown) registered an IC50 of 0.52 nM.
On the same count and under the same terms, with `O=C(c1ncc[nH]1)N1Cc2c([nH]c3ccccc3c2=O)C1c1ccc2c(c1)CCO2` (stereo not shown) the figure was 14.3 nM; with `O=C(O)c1ccc(-c2ccc(C(=O)N3Cc4c([nH]c5ccccc5c4=O)C3c3ccc4c(c3)OCO4)o2)cc1` (stereo not shown), 1.05 nM.
For the compound `CN(C)c1ccc(-c2ccc(C(=O)N3Cc4c([nH]c5ccccc5c4=O)C3c3ccc4c(c3)OCO4)o2)cc1` (stereo not shown), the IC50 came to 2.05 nM.
The same measure, in the same setting: with `O=C(NCc1ccncc1)N1Cc2c([nH]c3ccccc3c2=O)C1c1ccc2c(c1)OCO2` (stereo not shown) the figure was 40.5 nM; with `O=C(O)c1ccc(CCC(=O)N2Cc3c([nH]c4ccccc4c3=O)C2c2ccc3c(c2)OCO3)cc1` (stereo not shown), 3.4 nM; with `O=C(OCc1ccccc1)N1Cc2c([nH]c3ccccc3c2=O)C1c1ccc2c(c1)OCO2` (stereo not shown), 2.12 nM.
As for `O=C(Cc1ccncc1)N1Cc2c([nH]c3ccccc3c2=O)C1c1ccc2c(c1)OCO2` (stereo not shown), the IC50 was found to be 87 nM.
Still for that read-out and setting: with `O=C(c1cc2ccc(OCc3ccccc3)cc2o1)N1Cc2c([nH]c3ccccc3c2=O)C1c1ccc2c(c1)OCO2` (stereo not shown) the figure was 1.43 nM; with `CSc1ccc(-c2ccc(C(=O)N3Cc4c([nH]c5ccccc5c4=O)C3c3ccc4c(c3)OCO4)o2)cc1` (stereo not shown), 0.952 nM; with `O=C(C=Cc1ccccc1)N1Cc2c([nH]c3ccccc3c2=O)C1c1ccc2c(c1)OCO2` (stereo not shown), 0.54 nM.
Same read-out and setting: next, `COc1ccc(-c2cnc(N3Cc4c([nH]c5ccccc5c4=O)[C@@H]3c3ccc4c(c3)CCO4)nc2)cc1`: 2.42 nM; `O=C(O)c1ccc(COC(=O)N2Cc3c([nH]c4ccccc4c3=O)C2c2ccc3c(c2)OCO3)cc1` (stereo not shown): 1.56 nM.
Regarding `COc1ccc(-c2cnc(N3Cc4c([nH]c5ccccc5c4=O)C3c3ccsc3)nc2)cc1OC` (stereo not shown), the IC50 stood at 4.13 nM. This IC50 is about 2.6-fold higher than that of the compound before.
Still for that read-out and setting: with `O=C(c1ccccc1)N1Cc2c([nH]c3ccccc3c2=O)C1c1ccc2c(c1)OCO2` (stereo not shown) the figure was 51.5 nM; with `O=C(c1ccc(-c2cccc(C(F)(F)F)c2)o1)N1Cc2c([nH]c3ccccc3c2=O)C1c1ccc2c(c1)OCO2` (single isomer, unassigned), 0.66 nM; with `COc1ccc(-c2cnc(N3Cc4c([nH]c5ccccc5c4=O)[C@H]3c3ccc4c(c3)CCO4)nc2)cc1` [Compound 66, (R)-1,2,3,4-Tetrahydro-2-[5-(4-methoxyphenyl)-pyrimidin-2-yl]-3-(2,4-dihydrobenzofuranyl)-9H-pyrrolo-[3,4-b]quinolin-9-one], 0.17 nM.
The same measure, in the same setting: next, `O=C(c1ccc(-c2cccc(CO)c2)o1)N1Cc2c([nH]c3ccccc3c2=O)C1c1ccc2c(c1)OCO2` (stereo not shown): 0.56 nM.

Another experiment addresses T1, PDEV. The experiment is described as follows: In vitro determination of Ki for phosphodiesterase inhibitors. The following applies: human tissue; given as 'Ki ='.
`O=c1c2c([nH]c3ccccc13)C(c1ccc3c(c1)CCO3)N(c1ccc(Br)cn1)C2` (stereo not shown) came in with a Ki of 1.55 nM.

The target of another experiment is PDEV (Oryctolagus cuniculus, UniProt G1SX67). The experiment is described as follows: PDE assay: inhibition of PDEV isolated from rabbit tissue. The following applies: PDEV inhibitory activity, rabbit tissue (footnote a).
Compound `O=c1c2c([nH]c3ccccc13)[C@H](c1ccc3c(c1)OCO3)N(Cc1ccccc1)C2` returned an IC50 of 6880 nM.
